Measured values from EP0390558B1, “Aromatase inhibiting 4(5)-imidazoles” (ORION-YHTYMÄ OY, priority 1989, dated 1990).

By UniProt entry, the sequences of proteins in these tests, tags left out. Where a name states a change or a piece, a line headed by the entry shows the natural chain unless it says otherwise.
UniProt P11511: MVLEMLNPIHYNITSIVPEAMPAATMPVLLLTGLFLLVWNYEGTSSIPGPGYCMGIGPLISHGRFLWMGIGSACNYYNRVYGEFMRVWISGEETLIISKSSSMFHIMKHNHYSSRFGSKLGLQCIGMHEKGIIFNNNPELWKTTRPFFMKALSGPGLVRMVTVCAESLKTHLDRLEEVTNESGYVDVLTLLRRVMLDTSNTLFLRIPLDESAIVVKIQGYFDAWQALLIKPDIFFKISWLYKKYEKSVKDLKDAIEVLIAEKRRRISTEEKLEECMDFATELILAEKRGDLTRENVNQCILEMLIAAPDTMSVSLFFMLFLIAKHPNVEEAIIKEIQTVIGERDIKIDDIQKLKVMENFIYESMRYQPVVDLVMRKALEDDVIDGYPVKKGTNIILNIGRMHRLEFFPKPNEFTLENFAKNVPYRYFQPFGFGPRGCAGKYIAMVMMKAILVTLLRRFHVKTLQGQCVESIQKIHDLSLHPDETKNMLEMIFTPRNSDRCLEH

Molecular target: Human aromatase enzyme (Homo sapiens, UniProt P11511)
Assay: In vitro aromatase inhibition assay (3H2O release from 1,2[3H]-androstene-3,17-dione)

IC50 | Structure (SMILES)
2.9 µM | Cc1ccc(C(CCCc2c[nH]cn2)c2ccccc2)cc1 (stereo not drawn) [Compound 1a, 4-[4-(4-methylphenyl)-4-phenylbutyl]-1H-imidazole]
19 µM | Cc1ccc(C(CCCc2cncn2Cc2ccccc2)c2ccccc2)cc1 (stereo not drawn) [Compound 2a, 1-benzyl-5-[4-(4-methylphenyl)-4-phenylbutyl]-1H-imidazole]
13 µM | Cc1cccc(C(CCCc2cncn2Cc2ccccc2)c2ccccc2)c1 (stereo not drawn) [Compound 3a, 1-benzyl-5-[4-(3-methylphenyl)-4-phenylbutyl]-1H-imidazole]
8.5 µM | Cc1ccccc1C(CCCc1cncn1Cc1ccccc1)c1ccccc1 (stereo not drawn) [Compound 6a, 1-benzyl-5-[4-(2-methylphenyl)-4-phenylbutyl]-1H-imidazole]
15 µM | c1ccc(CC(CCCc2cncn2Cc2ccccc2)c2ccccc2)cc1 (stereo not drawn) [Compound 7a, 1-benzyl-5-(4,5-diphenylpentyl)-1H-imidazole]
7 µM | c1ccc(Cn2cncc2CCCC(c2ccccc2)c2ccccc2)cc1 [Compound 10a, 1-benzyl-5-(4,4-diphenylbutyl)-1H-imidazole]
3.5 µM | COc1ccc(C(CCCc2c[nH]cn2)c2ccccc2)cc1 (stereo not drawn) [Compound 11a, 4-[4-(4-methoxyphenyl)-4-phenylbutyl]-1H-imidazole]
10 µM | COc1ccc(C(CCCc2c[nH]cn2)c2ccc(OC)cc2)cc1 [Compound 12a, 4-[4,4-bis(4-methoxyphenyl)butyl]-1H-imidazole]
7.5 µM | Cc1cc(C)cc(C(CCCc2c[nH]cn2)c2ccccc2)c1 (stereo not drawn) [Compound 14a, 4-[4-(3,5-dimethylphenyl)-4-phenylbutyl]-1H-imidazole]
5 µM | Cc1ccc(C(CCCc2c[nH]cn2)c2ccccc2)cc1C (stereo not drawn) [Compound 15a, 4-[4-(3,4-dimethylphenyl)-4-phenylbutyl]-1H-imidazole]
125 µM | Cc1cccc(C(CCCc2c[nH]cn2)c2cc(C)cc(C)c2)c1 (stereo not drawn) [Compound 16a, 4-[4-(3,5-dimethylphenyl)-4-(3-methylphenyl)butyl]-1H-imidazole]
8.5 µM | C(=Cc1c[nH]cn1)CC(c1ccccc1)c1ccccc1 [Compound 22a, 4-(4,4-diphenyl-1-butenyl)-1H-imidazole]
